This is a sample that favours compounds with a hit; in the whole collection about 2.5% have one here.
Apoferritin bind – candidate novel general anesthetic via apoferritin binding; apoferritin/1-aminoanthracene competitive binding, fluorescence; 0.074% of 350,000 active; P02791; Potency, µM (titrated, usually from 77.5 µM), most hits filed as inhibitors; further: nearly all actives have a fitted effect of over 20% in size
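Apoferritin-based anesthetic binding model; compound displacement of fluorescent 1-AMA measured as endpoint fluorescence after 10 minutes at room temperature, scaled to free-ligand and complex controls.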
miR-21 reporter – raises the signal of a miR-21 reporter | Potency, µM (doses to about 38.3 µM) | HeLa miR-21 FLuc reporter, luciferase, 48 h | AID 2288 | 340,000 tested, under 10 active; active = well fitted rising curve with a large enough effect; inconclusive = small, poorly fitted or top-dose-only effect; inactive = no such curve, though single readings can be large or run the other way;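 also: miR-21 action dims this reporter so a rising signal means less miR-21 action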
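Using DMEM plus 10% FBS, HeLa miR-21-FLuc cells are incubated with test compounds (final up to about 40uM) for 48 hours; firefly luciferase signal is then imaged following reagent-mediated lysis.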
rTrxR1 inhibitor – rat TrxR1 inhibition; recombinant rTrxR1, NADPH fluorescence consumption, selenite substrate; Potency, µM (titrated, usually from 114 µM), hits mostly inhibitors; 1% of 390,000 active; AID 588453; further: nearly all actives have a fitted effect of over 65% in size
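Rat TrxR1 (90 nM in the dispensed reagent) was pre-reduced with 400 uM NADPH for 5 min at room temperature, then incubated with compound for 15 min. After 400 uM selenite was added, NADPH fluorescence (Ex 340/Em 450 nm) was followed for 8 min.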
ClpP mod – qHTS Assay for Activators of ClpP. 1.9% of 340,000 active. purified B. subtilis ClpP, FRET peptide cleavage, 20 min. Potency, µM (highest dose often 57.5 µM). ATP-dependent Clp protease proteolytic subunit (Bacillus subtilis (strain 168)), P80244; active means well fitted falling curve with a large enough effect; inconclusive means small, poorly fitted or top-dose-only effect; inactive means no such curve, though single readings can be large or run the other way; further: the source files actives as falling curves though it sought activators and does not explain the sign; nearly all actives have a fitted effect of over 65% in size
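Buffer: 100 mM Tris/HCl pH8, 100 mM KCl, 0.05% low protease BSA, 2.5% glycerol, 0.01% Tween-20. ClpP 10 microg/mL final; 20 min RT; delta FRET normalized to ADEP and DMSO controls.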
TrxR1 substrate – is turned over as a substrate by rat TrxR1; O89049; purified TrxR1 substrate turnover, NADPH consumption readout; Potency, µM (highest dose often 114 µM); 0.01% of 390,000 active; AID 588456; further: nearly all actives have a fitted effect of over 50% in size
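Rat TrxR1, dispensed at 90 nM, was prereduced with 400 uM NADPH (final) for 5 min at ~22 deg C, then incubated with compound 15 min before 400 uM selenite. A first-read NADPH fluorescence drop versus no-compound background flagged substrates.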
Hits are given with their value; n = inactive; u = inconclusive; x = not tested or not shown; [ ] = dose if it differs, or a comment. Unless noted, the call rests on the fitted dose curve; in most records, active means well fitted curve in the direction sought with a large enough effect; inconclusive means small, poorly fitted or top-dose-only effect, or another doubt; inactive means no such curve, though single readings can be large; an effect the other way counts as inactive or inconclusive.

By UniProt entry, the sequences of proteins in these tests, tags left out.
ATP-dependent Clp protease proteolytic subunit (Bacillus subtilis (strain 168)), P80244, UniProt P80244, whole entry, looked up: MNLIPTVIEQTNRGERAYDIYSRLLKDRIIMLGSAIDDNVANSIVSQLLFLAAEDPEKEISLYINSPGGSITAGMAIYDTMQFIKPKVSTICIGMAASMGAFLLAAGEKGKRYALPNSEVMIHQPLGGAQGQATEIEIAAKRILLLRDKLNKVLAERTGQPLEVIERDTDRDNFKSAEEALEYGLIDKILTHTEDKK

SMILES	Apoferritin bind	miR-21 reporter	rTrxR1 inhibitor	ClpP mod	TrxR1 substrate
CC(=O)NC(Nc1c(C)n(C)n(-c2ccccc2)c1=O)C(Cl)(Cl)Cl (stereo not drawn)	n	n	56.2µM	n	n
CCCC(=O)NC(Nc1c(C)n(C)n(-c2ccccc2)c1=O)C(Cl)(Cl)Cl (stereo not drawn)	n	n	n	n	n
S=C(NN=C(c1ccccc1)c1ccccn1)N(Cc1ccccn1)Cc1ccccn1	x	x	n	n	n
S=C(NN=Cc1ccccn1)N(Cc1ccccn1)Cc1ccccn1	x	x	u	22.4µM	n
O=C(CN1CCN(C(=O)c2ccco2)CC1)NCc1ccc(Cl)cc1	n	n	14.1µM	n	n
O=C(CN1CCN(Cc2ccccc2)CC1)NCc1ccc(Cl)cc1	n	n	n	n	n
Cc1cccc2[nH]cc(/C=C3/C=Nc4ccccc43)c12	x	x	n	n	n
CC1(C)C(=O)OC(C(=O)c2ccccc2)C(C)(C)C1=O (stereo not drawn)	8.91µM	n	n	n	n
Cc1ccc(CNC(=O)CCC(=O)N2CC3CCCN3c3ccccc32)cc1 (stereo not drawn)	n	n	n	n	n
CCc1cc(=O)oc2c(C)c3c(cc12)CN(CCc1ccccc1OC)CO3	n	n	n	n	n
CC1CC(C)CN(c2cc(N(C)CCO)c([N+](=O)[O-])c3nonc23)C1 (stereo not drawn)	u	n	n	n	n
CC1CCN(c2cc(N(C)CCO)c([N+](=O)[O-])c3nonc23)CC1	n	n	44.7µM	n	n
O=C1C=C(NC2=CC3OC(c4ccccc4)OCC3OC2=O)CCC1 (stereo not drawn)	n	n	8.91µM	n	n
O=C1C=C(NCc2ccccc2)CCC1	n	n	n	n	n
O=C(OCC(=O)N1CCc2ccccc21)c1ccc[nH]c1=O	n	n	n	28.2µM	n
O=C(OCC(=O)N1CCCc2ccccc21)c1ccccc1NCCO	x	x	n	31.6µM	n
O=C(Cc1ccccc1)N1CCc2ccccc21	8.91µM	n	n	n	n
CCCCOc1ccc(C(=O)Nc2cccc(-c3nc4cccnc4s3)c2)cc1	n	n	n	n	n
COc1ccc(-c2n[nH]c3c2C(c2ccc(Cl)cc2Cl)NC3=O)cc1 (stereo not drawn)	n	n	n	n	n
CCOc1ccc(S(=O)(=O)NCCc2cn3ccccc3n2)cc1	n	n	n	22.4µM	n
COc1cccc(NC(=O)c2oc3ccc(S(=O)(=O)N(C)C4CCCCC4)cc3c2C)c1	n	n	n	25.1µM	n
Cc1ccc(-n2ncc(C(=O)Nc3ccc4c(c3)OCCO4)c2C2CCN(C(=O)OC(C)(C)C)CC2)cc1C	n	n	n	n	n
CC1(C)CC(=O)C2=C(C1)c1c(ccc3ccccc13)NC2c1ccc(Br)o1 (stereo not drawn)	n	n	n	12.6µM	n
COc1cccc2sc(Nc3nnc(-c4ccccc4Cl)o3)nc12	n	n	n	u	n
COc1ccccc1-c1nnc(Nc2nc3c(OC)cccc3s2)o1	n	n	n	35.5µM	n
SMILES	Apoferritin bind	miR-21 reporter	rTrxR1 inhibitor	ClpP mod	TrxR1 substrate
COc1cccc(-c2nnc(NC(C)=O)o2)c1	n	n	n	u	n
COc1cccc(-c2nnc(Nc3nc4c(F)cccc4s3)o2)c1	n	n	n	28.2µM	n
CC(C)(C)OC(=O)N1CCC(c2c(C(=O)N3CCN(c4ccc(Cl)cc4)CC3)cnn2-c2ccc(F)cc2F)CC1	u	n	n	n	n
COc1cccc(C(=O)N2CC(=O)Nc3ccc(C)cc3C2c2ccc(F)cc2)c1OC (stereo not drawn)	n	n	n	n	n[2.29 µM]
Cc1cc2ccccn2c1C(=O)c1cccc([N+](=O)[O-])c1	u	n	n	x	n
Cc1cc2ccccn2c1C(=O)c1ccc([N+](=O)[O-])cc1[N+](=O)[O-]	n	n	3.16µM	x	n
Cc1cc2ccccn2c1C(=O)c1ccc([N+](=O)[O-])o1	u	n	11.2µM	n	n
O=C(O)c1ccc(S(=O)(=O)N[C@H](Cc2ccc(O)cc2)C(=O)O)cc1	n	x	x	x	x
O=C(/C=C/c1ccc(C(F)(F)F)cc1)OC(C(=O)NC1CC1)c1ccccc1 (stereo not drawn)	x	x	n	n	n[0.0914 µM]
Cc1cccc(N2C(=O)CC(Sc3nc(-c4ccccc4)c4cc(Cl)ccc4n3)C2=O)c1 (stereo not drawn)	n	n	n	28.2µM	n
Cc1cccc(N2C(=O)CC(Sc3nnc(C)s3)C2=O)c1 (stereo not drawn)	n	n	20µM	n	n
Cc1ccc(N2C(=O)CC(Sc3cccs3)C2=O)cc1 (stereo not drawn)	u	n	79.4µM	n	n
COc1cc2c(=O)c(S(=O)(=O)c3ccc(F)cc3)cn(Cc3ccc(Cl)cc3)c2cc1OC	n	n	n	n	n
O=C(COc1ccc(Cl)cc1)Nc1ccc(C(=O)OCc2cc(=O)n3ccsc3n2)cc1	n	n	n	n	n
CCCSc1cc(NCCOC(C)=O)c([N+](=O)[O-])c2nonc12	n	n	n	x	n
O=[N+]([O-])c1c(NCCCO)cc(Sc2nc3ccccc3s2)c2nonc12	u	n	0.631µM	n	n
CCC(=O)OCCNc1cc(Sc2nc3ccccc3[nH]2)c2nonc2c1[N+](=O)[O-]	u	u	0.282µM	n	n
Cc1nnc(Sc2cc(NCCO)c([N+](=O)[O-])c3nonc23)s1	n	u	0.316µM	n	n
CCC(=O)OCCNc1cc(Sc2nc3ccccc3s2)c2nonc2c1[N+](=O)[O-]	u	u	0.282µM	n	n
NC(=O)CSc1ncc2c(n1)-c1ccccc1N(Cc1cccc(F)c1)S2(=O)=O	n	n	n	u	n
O=C(NCCN1CCN(c2cccc(Cl)c2)CC1)C1COc2ccccc2C1 (stereo not drawn)	n	n	n	n	n
CC(/C=N/n1c(-c2ccncc2)n[nH]c1=S)=C\c1ccco1	n	n	50.1µM	n	n
CC(/C=N/n1c(-c2ccc(C)cc2)n[nH]c1=S)=C\c1ccco1	n	n	u	n	n
N#Cc1c(N)c(C#N)c(-c2ccc(O)cc2)c2c1CCCC2	n	n	n	22.4µM	n
N#Cc1c(N)c(C#N)c(-c2ccc3c(c2)OCO3)c2c1CCCC2	n	n	n	31.6µM	n
SMILES	Apoferritin bind	miR-21 reporter	rTrxR1 inhibitor	ClpP mod	TrxR1 substrate
CSc1nc2c(c(-c3ccc(O)cc3)c1C#N)CCC2	n	n	n	n	n
COC(=O)c1c(NC(=O)Cc2coc3cc(C)ccc23)sc2c1CCCC2	n	n	n	u	n
CCc1cnc2ccccc2c1/C=C/c1ccc(N(C)C)cc1	x	x	n	n	n
Cc1ccccc1CNC(=O)c1oc2c(c1C)-c1[nH]ncc1CC2	n	n	n	u	n
Cc1c(C(=O)NCc2cccc(F)c2)oc2c1-c1[nH]ncc1CC2	n	n	n	28.2µM	n
COc1cccc(CN2CCC(C(=O)N3CCN(Cc4ccc5c(c4)OCO5)CC3)CC2)c1OC	n	n	n	17.8µM	n

Screening data from PubChem BioAssay.
